Consider one compound from ChEMBL document CHEMBL1955824, “Indeno[1,2-b]indole derivatives as a novel class of potent human protein kinase CK2 inhibitors” (Bioorg Med Chem, 2012).

Amino acid sequences for entries named in this document (tags omitted).
UniProt P68400, whole entry: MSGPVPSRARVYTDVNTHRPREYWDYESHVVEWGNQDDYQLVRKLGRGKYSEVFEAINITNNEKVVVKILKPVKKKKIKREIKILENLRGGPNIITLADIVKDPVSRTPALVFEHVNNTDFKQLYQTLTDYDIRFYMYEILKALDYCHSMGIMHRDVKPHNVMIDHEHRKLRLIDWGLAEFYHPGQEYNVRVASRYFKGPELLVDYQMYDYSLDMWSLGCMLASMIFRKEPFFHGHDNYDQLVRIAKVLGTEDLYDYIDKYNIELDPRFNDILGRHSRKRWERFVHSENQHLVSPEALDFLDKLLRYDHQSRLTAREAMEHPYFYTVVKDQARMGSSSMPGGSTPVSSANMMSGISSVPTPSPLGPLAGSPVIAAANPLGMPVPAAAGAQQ

The target in this assay is Casein kinase II alpha/beta (Homo sapiens, UniProt P68400). The assay is described as follows: Inhibition of human CSNK2A1/2B expressed in Escherichia coli BL21(DE3) using RRRDDDSDDD as substrate after 15 mins by scintillation counting.

As for `Cc1cc(O)c2c(c1)C(=O)c1cc(O)cc(O)c1C2=O` [EMODIN], inhibition was half-maximal at 0.46 µM (IC50).

By IC50 is commonly meant the midpoint of a concentration-inhibition curve.
